# Assay results: PubChem BioAssay AID1024 (Sanford-Burnham Center for Chemical Genomics, 2008)
# Chains of the proteins cited; added tags and fusions are not shown.
# UniProt P11712, whole entry: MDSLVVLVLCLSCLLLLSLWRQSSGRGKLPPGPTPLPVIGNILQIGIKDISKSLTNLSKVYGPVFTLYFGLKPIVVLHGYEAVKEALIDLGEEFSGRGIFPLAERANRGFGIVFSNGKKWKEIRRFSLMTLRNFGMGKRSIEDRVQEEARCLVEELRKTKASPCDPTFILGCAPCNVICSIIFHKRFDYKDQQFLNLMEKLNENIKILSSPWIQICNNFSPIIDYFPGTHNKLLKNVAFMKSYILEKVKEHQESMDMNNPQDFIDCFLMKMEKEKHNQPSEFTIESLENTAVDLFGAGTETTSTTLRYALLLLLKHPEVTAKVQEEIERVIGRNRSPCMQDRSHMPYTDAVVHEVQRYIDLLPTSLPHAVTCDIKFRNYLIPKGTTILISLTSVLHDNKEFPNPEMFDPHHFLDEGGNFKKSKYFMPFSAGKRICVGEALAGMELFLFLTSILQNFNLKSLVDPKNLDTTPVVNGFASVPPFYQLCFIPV
# The entries are a selection whose mix differs from that of the whole data set. Some of these compounds have results that are not shown, active ones among them. Activity calls are given as the source filed them.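 How the source made its calls: active means activation factor of 2 or more for CYP2C9 at a 5 µM dose; inactive means the rest.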
# Target: Cytochrome P450 2C9 (Homo sapiens) (UniProt P11712)
# Assay: enhancers of cytochrome P450 2C9 turnover – biochemical, luminescence, primary screen (AID 1024);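 further: 0 = sulfaphenazole-blocked wells and 1 = vehicle-only wells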
# Conditions: recombinant CYP2C9, luciferin-H conversion, at 5 µM, hits give high values, factor 1 = untreated enzyme, 0 = blocked
row,Compound,activation factor
1,CC(C)N1C(=O)CC2(CCN(CCOC(=O)C(O)(c3ccccc3)c3ccccc3)CC2)C1=O,inactive: 1.1
2,O=C(OC1CN2CCC1CC2)C(CO)(c1ccccc1)c1ccccc1 (stereo not drawn),inactive: 0.9
3,CN(C)c1cccc(C(=O)NCC2(N(C)C)CCCCC2)c1,inactive: 1.1
